Two molecules from publication PMC4257840 (Journal of Medicinal Chemistry, 2014) can be followed below.

This experiment addresses T1, Der p 1 (Dermatophagoides pteronyssinus, UniProt P08176).
T1 sequence (P08176 99-320): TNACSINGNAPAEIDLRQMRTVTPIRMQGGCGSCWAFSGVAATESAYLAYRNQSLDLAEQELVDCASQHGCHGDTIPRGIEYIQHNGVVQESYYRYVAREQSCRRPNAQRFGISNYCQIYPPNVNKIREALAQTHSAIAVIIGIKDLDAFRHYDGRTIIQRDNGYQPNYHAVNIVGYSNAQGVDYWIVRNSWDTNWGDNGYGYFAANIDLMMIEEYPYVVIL
Format: biochemical. The conditions noted are these: mean ± SE.

Molecule `CC(C)[C@H](NC(=O)[C@H](C)NC(=O)[C@@H](NC(=O)C1CC[N+](C)(C)CC1)C(C)(C)C)C(=O)C(=O)NCc1ccccc1.O=C[O-]` [Compound 32, 4-{(S)-1-[(S)-1-((S)-1-Benzylaminooxalyl-2-methyl-propylcarbamoyl)-ethylcarbamoyl]-2,2-dimethyl-propylcarbamoyl}-1,1-dimethyl-piperidinium Formate] came in with an IC50 of 6 ± 1 nM.

With `CC(C)[C@H](NC(=O)[C@H](C)NC(=O)[C@H](Cc1ccccc1)NC(=O)c1ccccc1)C(=O)C(=O)NCC(=O)N1CC[N+](C)(C)CC1.O=C[O-]` [Compound 52, 4-(2-{(S)-3-[(S)-2-((S)-2-Benzoylamino-3-phenyl-propionylamino)-propionylamino]-4-methyl-2-oxo-pentanoylamino}-acetyl)-1,1-dimethyl-piperazin-1-ium Formate], the IC50 amounted to 17 ± 2 nM.
